Data on two compounds can be found in article PMC11726677, “Eradication of Therapy-Resistant Cancer Stem Cells by Novel Telmisartan Derivatives” (Journal of Medicinal Chemistry, 2024).

In one data set the test system is A549 cells (ABCC1+). The data set can be described thus: SP analysis (DCV, flow cytometry) in A549 cells. In kind it is cell-based, human.
Data set [1] can be described thus: Body weight / tolerability in the K562-R xenograft study. As to conditions: PO QD x 30 days (imatinib 50 mg/kg, 7c 10 mg/kg), n = 7.
The subject of another data set is Caco2 cells. The data set can be described thus: Caco2 permeability (bidirectional). The class given is in vitro ADME. As to conditions: apical to basolateral, pH 7.4, 10 μM.

As for `CCCc1nc2ccccc2n1Cc1ccc(-c2cccc(C(N)=O)c2)cc1` [5c, 4′-((2-Propyl-1H-benzo[d]imidazole-1-yl)methyl)-[1,1′-biphenyl]-3-carboxamide], the “effect on SP phenotype” value in the data set on A549 cells (ABCC1+) is “nearly inactive”.

As for `CCCc1nc2c(C)cc(-c3nc4ccccc4n3C)cc2n1Cc1ccc(-c2ccccc2C(N)=O)cc1` [7c, 4′-((1,7′-Dimethyl-2′-propyl-1H,3′H-[2,5′-bibenzo[d]imidazole]-3′-yl)methyl)-[1,1′-biphenyl]-2-carboxamide], the “Body Weight, group mean” value was 23.9 g in data set [1] (Day 5); 23.7 g in data set [1] (Day 12); 24.3 g in data set [1] (Day 19); 24.3 g in data set [1] (Day 26); 24.3 g in data set [1] (Day 29). Moreover, the “Caco2 permeability Papp A–B” value with Caco2 cells is reported as 24.3 10^–6 cms^–1.
